In patent US20060003399:

Columns and labels:
[1] = system: Full length human WASP, TAP-tagged at the C-terminus (Myc-WASP-TAP)
[2] = system: Full length human N-WASP, TAP-tagged at the C-terminus (Myc-N-WASP-TAP)

With GST-tev-Rac1 the Barbed ends [1] was 1.4 nM, the Barbed ends % of max. [1] was 12% and the Barbed ends [2] was 1.9 nM. For the same substance, the Barbed ends % of max. [2] was 28%.
